## Antibody variant affinities, Ab-14 light chain, assay 1

Values reported by Engelhart et al. 2022, doi:10.1038/s41597-022-01779-4 (FLAb copy).

Target peptide (SARS-CoV-2 spike, HR2 region): PDVDLGDISGINAS

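Phage display of a naive human antibody library on the peptide gave the parent. The library (AAYL50) carries one to three amino acid substitutions per variant, with no insertions or deletions. The assay is AlphaSeq: two haploid yeast populations carry antibody and antigen on their surface. The frequency of each diploid, read from paired DNA barcodes, reflects how well the two displayed proteins bind. Read counts were normalised to the haploid input and turned into Kd by a linear fit to BCL2-family pairs of known affinity, for each replicate. Each pool was mated in three replicate cultures.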

Each scFv is VH, the linker GGGGSGGGGSGGGGS, VL, as in the parent Ab-14, and differs from it in the CDRs of the light chain only.
VH: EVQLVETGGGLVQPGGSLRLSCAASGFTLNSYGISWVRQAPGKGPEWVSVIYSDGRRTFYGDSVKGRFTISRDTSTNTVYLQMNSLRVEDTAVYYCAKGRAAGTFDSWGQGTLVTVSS
VL: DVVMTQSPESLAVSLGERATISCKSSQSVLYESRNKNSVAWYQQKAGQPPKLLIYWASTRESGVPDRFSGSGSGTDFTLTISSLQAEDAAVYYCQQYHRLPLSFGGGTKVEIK

Each variant's VL is given in full. Numbers give log10(Kd / nM), so 0 is 1 nM and 3 is 1 µM. Smaller is tighter. The mean shown is taken over the replicates in which the pair was detected. An entry "no signal" has no value in the source: the pair was not observed among the diploids in any replicate. This suggests poor binding but is not conclusive. As a blank, each scFv also met three strains without target: over library AAYL50, 18% of these pairings were detected, typically at 4.19 and seldom below 2.99. Also given: how often the same scFv was detected with the empty control strains.

mean log10 Kd (nM) | seen in | empty controls | VL
0.68 | 3 of 3 | 5 of 9 | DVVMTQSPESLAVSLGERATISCKLSQSVLYESRYKNSVAWYQQKAGQPPKLLIYWASTRESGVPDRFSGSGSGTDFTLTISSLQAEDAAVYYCQQYHQLPLSFGGGTKVEIK
0.99 | 3 of 3 | 0 of 9 | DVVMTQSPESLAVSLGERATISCKSSQSVLYESRNENSVAWYQQKAGQPPKLLIYWASTRESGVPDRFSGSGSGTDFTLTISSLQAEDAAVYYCQWYHRLPTSFGGGTKVEIK
no signal | 0 of 3 | 1 of 9 | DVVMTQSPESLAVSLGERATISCKSSQSELYESRNKNSVAWYQQKAGQPPKLLIYWASDNESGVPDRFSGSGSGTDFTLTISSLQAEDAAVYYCQQYHRLPLSFGGGTKVEIK
2.62 | 1 of 3 | 1 of 9 | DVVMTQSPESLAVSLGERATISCKSSQSVLYCSRNKNSVAWYQQKAGQPPKLLIYWASYFESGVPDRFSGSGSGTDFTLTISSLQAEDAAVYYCQQYHRLPLSFGGGTKVEIK
2.48 | 3 of 3 | 3 of 9 | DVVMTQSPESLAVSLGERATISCKSSQSVLYESKNKNTVAWYQQKAGQPPKLLIYWASYRESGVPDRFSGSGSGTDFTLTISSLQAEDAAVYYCQQYHRLPLSFGGGTKVEIK
4.72 | 1 of 3 | 2 of 9 | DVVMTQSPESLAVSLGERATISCKSSQSVLYESRNKNWVAWYQQKAGQPPKLLIYWISTRESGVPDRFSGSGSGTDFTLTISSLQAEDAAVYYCQQYHRLPLCFGGGTKVEIK
0.12 | 3 of 3 | 0 of 9 | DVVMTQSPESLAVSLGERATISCRSSQSVAYESRNKNSVAWYQQKAGQPPKLLIYHASTRESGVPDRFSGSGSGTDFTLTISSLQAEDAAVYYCQQYHRLPLSFGGGTKVEIK
no signal | 0 of 3 | 0 of 9 | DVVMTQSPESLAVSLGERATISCKSSQSVLYESRNMNSVAWYQQKAGQPPKLLIYWASTRYSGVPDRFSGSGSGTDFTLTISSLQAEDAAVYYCQQYHRLPLPFGGGTKVEIK
4.96 | 3 of 3 | 6 of 9 | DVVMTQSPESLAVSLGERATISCKSSQSVLYESRKKNSVAWYQQKAGQPPKLLIYWAVTAESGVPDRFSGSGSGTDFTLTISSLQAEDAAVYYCQQYHRLPLSFGGGTKVEIK
2.30 | 3 of 3 | 1 of 9 | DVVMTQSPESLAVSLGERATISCVSSQSVLYESRNKNSVAWYQQKAGQPPKLLIYTASTRESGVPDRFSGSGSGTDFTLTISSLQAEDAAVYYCQQYHLLPLSFGGGTKVEIK
no signal | 0 of 3 | 1 of 9 | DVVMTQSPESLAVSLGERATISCKSSQSVLYESRNKNSVAWYQQKAGQPPKLLIYWESTRESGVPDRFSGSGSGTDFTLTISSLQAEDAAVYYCQQYHRQPESFGGGTKVEIK
0.88 | 3 of 3 | 5 of 9 | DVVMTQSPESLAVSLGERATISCKSSQSDLYESRNKNSVAWYQQKAGQPPKLLIYWATARESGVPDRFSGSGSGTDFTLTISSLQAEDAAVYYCQQYHRLPLSFGGGTKVEIK
no signal | 0 of 3 | 0 of 9 | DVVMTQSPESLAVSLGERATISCKSSQSVLYESRAKNYVAWYQQKAGQPPKLLIYWASTRESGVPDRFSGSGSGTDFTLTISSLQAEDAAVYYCQQYHSLPLSFGGGTKVEIK
0.04 | 3 of 3 | 1 of 9 | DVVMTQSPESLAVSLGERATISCKSSHSVGYESRNKNSVAWYQQKAGQPPKLLIYWASTREEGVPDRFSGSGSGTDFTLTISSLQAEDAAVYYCQQYHRLPLSFGGGTKVEIK
no signal | 0 of 3 | 0 of 9 | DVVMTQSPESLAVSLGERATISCKSSQSVLYESRNKNSIAWYQQKAGQPPKLLIYWARTRESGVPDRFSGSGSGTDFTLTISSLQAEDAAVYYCQQYHRLPLLFGGGTKVEIK
2.23 | 3 of 3 | 4 of 9 | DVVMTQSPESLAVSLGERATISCHSSQSVLYRSRNKNSVAWYQQKAGQPPKLLIYWASTRDSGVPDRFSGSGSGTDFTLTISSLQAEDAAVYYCQQYHRLPLSFGGGTKVEIK
no signal | 0 of 3 | 3 of 9 | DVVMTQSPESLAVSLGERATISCKSSQSVLYENRNKNSVAWYQQKAGQPPKLLIYWAVTRESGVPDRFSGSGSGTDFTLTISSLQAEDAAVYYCQQYHRLPQSFGGGTKVEIK
no signal | 0 of 3 | 1 of 9 | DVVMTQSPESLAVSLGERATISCKSSQSVLYESRNKNSVAWYQQKAGQPPKLLIYWLSTRESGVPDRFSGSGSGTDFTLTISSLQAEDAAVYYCQQYHRLDNSFGGGTKVEIK
no signal | 0 of 3 | 0 of 9 | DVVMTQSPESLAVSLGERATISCKSSQSVLYEPHNKNSVGWYQQKAGQPPKLLIYWASTRESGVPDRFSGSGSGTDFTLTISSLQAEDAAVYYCQQYHRLPLSFGGGTKVEIK
3.60 | 1 of 3 | 1 of 9 | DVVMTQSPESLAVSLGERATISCKSSQSVLYESRNKNSVAWYQQKAGQPPKLLIYKASTRESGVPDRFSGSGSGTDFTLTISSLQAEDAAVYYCQQYHRLTDSFGGGTKVEIK
3.55 | 1 of 3 | 1 of 9 | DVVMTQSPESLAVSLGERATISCKSSASVLYESRNKNSVAWYQQKAGQPPKLLIYWASTRECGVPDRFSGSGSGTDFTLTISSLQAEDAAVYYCQQYHRLMLSFGGGTKVEIK
5.00 | 3 of 3 | 6 of 9 | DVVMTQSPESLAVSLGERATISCKSSQSVLYDSRNTNSVAWYQQKAGQPPKLLIYGASTRESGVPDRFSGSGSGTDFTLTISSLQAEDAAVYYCQQYHRLPLSFGGGTKVEIK
1.86 | 3 of 3 | 0 of 9 | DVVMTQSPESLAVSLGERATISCKSSQSVLRESRNKNSVAWYQQKAGQPPKLLIYWASTRESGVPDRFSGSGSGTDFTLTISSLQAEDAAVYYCQYYHRLSLSFGGGTKVEIK

Repeated from above, the 2 best binders with a signal in all replicates:

VL | mean log10 Kd (nM) | seen in | empty controls
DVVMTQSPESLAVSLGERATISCKSSHSVGYESRNKNSVAWYQQKAGQPPKLLIYWASTREEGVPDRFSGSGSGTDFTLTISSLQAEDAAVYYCQQYHRLPLSFGGGTKVEIK | 0.04 | 3 of 3 | 1 of 9
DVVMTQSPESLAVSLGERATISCRSSQSVAYESRNKNSVAWYQQKAGQPPKLLIYHASTRESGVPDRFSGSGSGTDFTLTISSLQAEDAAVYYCQQYHRLPLSFGGGTKVEIK | 0.12 | 3 of 3 | 0 of 9